Columns and labels:
[1] = Stability in simulated gastric fluid (SGF); details: SDS-gel electrophoresis
[2] = Stability in simulated intestinal fluid (SIF); details: SDS-gel electrophoresis

Question: For bovine serum albumin [BSA], which time to degradation [1] is on record?
Answer: ≤ 2 min

Question: And the degradation [2]?
Answer: appearance of lower molecular degradation products after longer incubations

— patent US20090215669A1, “COMPOSITIONS AND METHODS FOR TREATMENT OF DIABETES” (DIA-B TECH LIMITED, priority 2005, published 2009)
